Data taken from PubChem BioAssay AID2380 (Sanford-Burnham Center for Chemical Genomics, 2010).
This is a selection; strong and weak results do not stand in their true shares. Activity calls are given as the source filed them.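 How the source made its calls: active means compounds whose signal lies at least 3.5 SD above the mean of all wells on their plate; inactive means the rest.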

Assay: inducers of MIN6 beta-cell proliferation, primary screen, ATP luminescence, uHTS (AID 2380);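 further: 0% = DMSO-treated cells in low-serum medium and 100% = 10% serum control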
Conditions: MIN6 cells proliferation, ATPlite luminescence, 48 h; at 10 µM; active compounds read high; 100% = growth in 10% serum; cells starved in 0.2% serum

SMILES | proliferation
CC(C)c1ccc(NC2CCN(C(=O)OC(C)(C)C)CC2)cc1 | inactive: -2.16%
CN(C)c1cccc(C(=O)NCC2(N3CCCCC3)CCCCC2)c1 | inactive: -1.91%
COc1ccc(CN(CCCl)CCCl)cc1Cl | inactive: -3.6%
O=C(NCC1(N2CCOCC2)CCCCC1)c1cc(F)c(F)cc1Cl | inactive: 1.3%
COc1cc(OC)c(C(=O)NCC2(N(C)C)CCCCC2)cc1OC | inactive: -4.21%
CN1CCC(Nc2cccc(F)c2)CC1 | inactive: 1.42%
O=C(NCC1(N2CCCCC2)CCCCC1)c1cncc(Br)c1 | inactive: -4.01%
O=C(NCC1(N2CCCCC2)CCCCC1)c1ccc(OC(F)F)cc1 | inactive: -0.67%
N#CC1(Nc2ccccc2)CCN(CCc2ccccc2)CC1 | inactive: -3.51%
CCN1CCC(Nc2ccc(Cl)cc2)CC1 | inactive: -0.05%
CSc1ccc(C(=O)NCC2(N3CCOCC3)CCCCC2)cc1 | inactive: -1.96%
O=C(NCC1(N2CCCCC2)CCCCC1)c1cccc([N+](=O)[O-])c1 | inactive: -0.41%
O=C(NCC1(N2CCCCC2)CCCCC1)c1cccc(C(F)(F)F)c1 | inactive: 6.76%
COc1cc(C(=O)NCC2(N3CCCCC3)CCCCC2)ccc1OC(F)F | inactive: 2.26%
O=C(NCC1(N2CCOCC2)CCCCC1)c1cc(=O)[nH]c2ccccc12 | inactive: 1.46%
CN1CCN(CCOC(=O)C(O)(c2ccccc2)c2ccccc2)CC1 | inactive: 0%
CC(C)c1ccc(C(=O)NCC2(N3CCOCC3)CCCCC2)cc1 | inactive: -6.68%
COc1ccc(NC2CCN(C(=O)OC(C)(C)C)CC2)cc1 | inactive: -1.97%
CCOc1ccc(C)cc1CN(CCCl)CCCl | inactive: 0.42%
COc1ccc(NC2CCN(CCc3ccccc3)CC2)c(OC)c1 | inactive: -1.63%
CCOC(=O)N1CCC(Nc2ccc(F)cc2)CC1 | inactive: -1.72%
CCCCOc1ccc(C(=O)NCC2(N3CCOCC3)CCCCC2)cc1 | inactive: -3.22%
O=C(NCC1(N2CCCCC2)CCCCC1)c1ccc(F)cc1 | inactive: 0%

SMILES | proliferation
Cc1ccc(OCC(C)C)c(CN(CCCl)CCCl)c1 | inactive: -2.15%
CCOC(=O)N1CCC(Nc2cccc(C)c2)CC1 | inactive: 1.18%
CC(C)(C)OC(=O)N1CCC(N(C(=O)c2ccccc2)c2ccc(F)cc2)CC1 | inactive: 2.68%
COc1ccc(C(=O)NCC2(N3CCCCC3)CCCCC2)c(OC)c1OC | inactive: -2.74%
COc1ccc(C(=O)NCC2(N3CCCCC3)CCCCC2)cc1 | inactive: 0%
O=C(NCC1(N2CCCCC2)CCCCC1)c1cccs1 | inactive: 5.38%
O=C(NCC1(N2CCCCC2)CCCCC1)c1ccc(=O)[nH]c1 | inactive: -1.74%
CSc1ccccc1C(=O)NCC1(N2CCCCC2)CCCCC1 | inactive: 0%
Cc1cc(C)cc(N(C(=O)c2ccccc2)C2CCN(C(=O)OC(C)(C)C)CC2)c1 | inactive: -4.04%
O=C(NCC1(N2CCCCC2)CCCCC1)c1ccc(Cl)nc1 | inactive: 0.27%
O=C(NCC1(N2CCOCC2)CCCCC1)c1cc2ccccc2o1 | inactive: -0.54%
COc1ccc(Cl)cc1C(=O)NCC1(N2CCOCC2)CCCCC1 | inactive: 1.69%
N#CC1(Nc2ccccc2)CCN(Cc2ccccc2)CC1 | inactive: 0.82%
O=C(NCC1(N2CCCCC2)CCCCC1)c1ccc(Cl)s1 | inactive: -1.81%
O=C(OC1CN2CCC1CC2)C1c2ccccc2Oc2ccccc21 (configuration not stated) | inactive: -2.61%
CCOC(=O)N1CCC(Nc2ccc(OC)cc2)CC1 | inactive: 0.25%
CN1CCC(Nc2ccc(F)c(Cl)c2)CC1 | inactive: -1.8%
CCOc1ncccc1C(=O)NCC1(N2CCOCC2)CCCCC1 | inactive: 2.1%
O=C(O)C1(Nc2ccccc2)CCN(Cc2ccccc2)CC1 | inactive: -1.68%
CC(C)(C)OC(=O)N1CCC(Nc2ccccc2)CC1 | inactive: -0.86%
CCCOc1ccc(C(=O)NCC2(N(C)C)CCCCC2)cc1 | inactive: 0.05%
COc1cc(OC)cc(C(=O)NCC2(N3CCOCC3)CCCCC2)c1 | inactive: 0.95%
COc1cccc(C(=O)N(c2cc(C)cc(C)c2)C2CCN(C(=O)OC(C)(C)C)CC2)c1 | inactive: -1.71%

SMILES | proliferation
CCC(CO)(C(=O)OC1CN2CCC1CC2)c1ccccc1 (configuration not stated) | inactive: 1.09%
CN1CCC(Nc2ccc(Cl)cc2)CC1 | inactive: 4.97%
CCCOc1ccc(C)cc1CN(CCCl)CCCl | inactive: -3.62%
COc1cc(OC)cc(C(=O)NCC2(N3CCCCC3)CCCCC2)c1 | inactive: -3.24%
Fc1ccccc1NC1CCN(Cc2ccccc2)CC1 | inactive: -0.48%
Cc1ccc(C(=O)NCC2(N3CCCCC3)CCCCC2)o1 | inactive: 2.68%
CCN1CCC(Nc2cccc(F)c2)CC1 | inactive: -3.76%
CN(C)c1ccc(C(=O)NCC2(N3CCCCC3)CCCCC2)cc1 | inactive: -0.71%
O=C(NCC1(N2CCCCC2)CCCCC1)c1ccco1 | inactive: 2.6%
N#Cc1ccc(C(=O)NCC2(N3CCCCC3)CCCCC2)cc1 | inactive: -1.73%
CC(C)(C)OC(=O)N1CCC(N(C(=O)c2ccccc2)c2ccc(Cl)cc2)CC1 | inactive: -3.86%
CN(C)C1(CNC(=O)c2cccc(C#N)c2)CCCCC1 | inactive: -3.72%
CCCN1CCC(Nc2cc(OC)cc(OC)c2)CC1 | inactive: -3.76%
c1ccc(CN2CCC(Nc3ccccc3)CC2)cc1 | inactive: 0.15%
COc1cc(C(=O)NCC2(N3CCOCC3)CCCCC2)cc(OC)c1C | inactive: 3.07%
O=C(NCC1(N2CCOCC2)CCCCC1)c1cc(Br)ccc1Cl | inactive: 6.27%
COc1ccc(C(=O)NCC2(N3CCOCC3)CCCCC2)cc1OC | inactive: 1.6%
CCOC(=O)N1CCC(Nc2ccc(C)cc2)CC1 | inactive: -3.52%
N/C(=N\O)c1c(N)no[n+]1[O-] | inactive: -2.32%
CCc1cc(C(=O)NCC2(N3CCCCC3)CCCCC2)sc1C | inactive: -3.94%
O=C(OC1CN2CCC1CC2)C1c2ccccc2C=Cc2ccccc21 (configuration not stated) | inactive: -3.77%
